From patent publication US11965886B2, “Method of immobilizing a cell on a support using compounds comprising a polyethylene glycol moiety” (Roche Diagnostics Operations, Inc., priority 2013, dated 2024) come the findings set out here.

The data set relates to WBCs. Put plainly: Immobilization of cells: recovery rate of cells on SA (streptavidin) plate or untreated plate (Example 3). It counts as cell-based. Conditions: 10 nmol/10e6 cells. The method, then: The following applies for modular description of the compounds below: X=hydrophobic moiety, […]=fluorescein In the following experiment, the recovery rate of cells was determined.

Consider “5′-(Cholesterol-TEG)1-Doubler-dT-Biotin-3′ [29.891272]”, for which the remark on cells entry is on record as “Vesicle formation”.
